# Experimental data taken from patent US9808553B2, “Haemostatic wound dressing” (Haemostatix Limited, priority 2012, dated 2017).
# Columns and labels:
# fibrinogen = biological target: T1, fibrinogen (Homo sapiens, UniProt P02679); assay: Stability in solution at 37° C., visual clot formation with fibrinogen; format: physicochemical; conditions: stored in solution at 37° C.
# T1 sequence (P02679 27-453): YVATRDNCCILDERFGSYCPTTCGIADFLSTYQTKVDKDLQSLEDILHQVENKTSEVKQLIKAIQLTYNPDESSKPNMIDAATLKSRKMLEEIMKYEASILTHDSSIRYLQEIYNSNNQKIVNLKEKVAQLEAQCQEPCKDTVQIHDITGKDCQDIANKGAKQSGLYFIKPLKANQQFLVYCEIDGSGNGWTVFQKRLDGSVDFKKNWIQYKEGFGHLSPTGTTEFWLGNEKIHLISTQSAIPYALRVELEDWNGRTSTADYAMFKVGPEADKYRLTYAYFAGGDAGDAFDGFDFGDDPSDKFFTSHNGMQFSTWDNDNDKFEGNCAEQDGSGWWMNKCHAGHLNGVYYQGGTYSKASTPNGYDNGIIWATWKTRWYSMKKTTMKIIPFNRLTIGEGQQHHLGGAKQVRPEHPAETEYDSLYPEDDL
# T1 sequence (P02671 20-629 partner limits assumed): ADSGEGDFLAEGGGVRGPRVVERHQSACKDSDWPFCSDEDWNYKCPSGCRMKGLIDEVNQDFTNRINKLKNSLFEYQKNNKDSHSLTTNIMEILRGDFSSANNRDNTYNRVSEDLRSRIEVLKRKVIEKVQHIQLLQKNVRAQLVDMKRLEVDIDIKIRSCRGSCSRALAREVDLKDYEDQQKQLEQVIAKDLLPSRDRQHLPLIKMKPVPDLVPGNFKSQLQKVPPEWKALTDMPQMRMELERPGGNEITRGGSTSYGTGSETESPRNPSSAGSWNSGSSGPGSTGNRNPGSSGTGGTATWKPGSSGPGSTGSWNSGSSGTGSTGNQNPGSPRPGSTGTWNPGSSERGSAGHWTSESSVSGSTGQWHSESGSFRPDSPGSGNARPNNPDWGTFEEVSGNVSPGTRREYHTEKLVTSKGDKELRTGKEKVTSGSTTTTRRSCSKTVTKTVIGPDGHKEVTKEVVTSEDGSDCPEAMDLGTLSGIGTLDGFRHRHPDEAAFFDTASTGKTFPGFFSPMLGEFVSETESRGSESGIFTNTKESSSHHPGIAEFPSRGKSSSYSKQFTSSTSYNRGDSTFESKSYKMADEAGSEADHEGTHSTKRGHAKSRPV
# T1 sequence (P02675 31-491 partner): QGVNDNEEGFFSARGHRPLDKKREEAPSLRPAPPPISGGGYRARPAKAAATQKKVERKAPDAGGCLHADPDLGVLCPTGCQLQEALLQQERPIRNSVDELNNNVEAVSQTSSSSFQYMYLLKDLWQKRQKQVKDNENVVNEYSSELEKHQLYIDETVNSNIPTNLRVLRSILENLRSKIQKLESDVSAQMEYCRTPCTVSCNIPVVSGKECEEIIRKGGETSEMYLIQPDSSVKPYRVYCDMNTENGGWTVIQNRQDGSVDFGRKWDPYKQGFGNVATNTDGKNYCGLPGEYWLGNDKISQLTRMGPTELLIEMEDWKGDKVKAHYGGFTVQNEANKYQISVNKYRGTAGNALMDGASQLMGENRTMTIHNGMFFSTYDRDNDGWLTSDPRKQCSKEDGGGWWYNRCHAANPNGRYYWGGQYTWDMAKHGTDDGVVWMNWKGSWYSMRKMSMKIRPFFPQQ
# Experimental: PeproStat (comprising fibrinogen-binding peptides, each of sequence GPRPG immobilised to HSA carrier) was stored in solution for 6 months at 37° C. At time zero, and various times during the storage period, samples of the stored solution were assayed for ability to form a co-polymer with fibrinogen, as follows:
# Fibrinogen was diluted in 10 mM HEPES, 0.15M NaCl, pH 7.3+/1 0.2 to 6 mg/ml. 25 μl PeproStat at 5 mg/ml was added to 400 μl of the diluted fibrinogen, and the time taken for formation of a visual clot comprising a co-polymer of PeproStat and fibrinogen was recorded.
# rabbit fibrinogen = assay: Flow cytometry binding of FITC-labelled fibrinogen to GPRPG-albumin microparticles; conditions: GPRPG peptide on albumin microparticles, flow cytometer
# Experimental: The haemostatic activity of PeproStat was to be determined using a heparinised rabbit model. However, before using this model, it was important to determine that the product is active in a rabbit, and in particular that the fibrinogen-binding sequence of PeproStat (GPRP-) binds to rabbit fibrinogen. This was done by conjugating a GPRPG peptide to albumin microparticles, which were then incubated with FITC-labelled rabbit fibrinogen. Fluorescent fibrinogen binding to the particles can then be measured using a Flow Cytometer. […] This confirms published data showing that the relevant rabbit and human fibrinogen binding sequence exposed when thrombin cleaves Fibrinopeptide A from fibrinogen is the same.
# [1] = biological target: T2, purified human fibrinogen (Homo sapiens, UniProt P02679); assay: Clotting activity, Sigma Amelung KC4 coagulometer; format: biochemical; conditions: KC-4 coagulometer at 0.5 mg/mL
# T2 sequence (P02679 27-453): T1 sequence (P02679 27-453)
# T2 sequence (P02671 20-629 partner limits assumed): T1 sequence (P02671 20-629 partner limits assumed)
# T2 sequence (P02675 31-491 partner): T1 sequence (P02675 31-491 partner)
# Experimental: The activity of the final product is investigated using a Sigma Amelung KC4 coagulometer. Briefly, 30 μL test sample at 0.5 mg/ml is added to 100 μL purified human fibrinogen at 3 mg/ml, the KC4 registers clot formation in less than 6 seconds.
# The clotting activity of the sample was measured using a Sigma Amelung KC-4 coagulometer which measures the time taken to form a clot. The analysis of clotting activity of the eluted PeproStat was compared with that of non freeze-dried PeproStat.
# [2] = Recovery of protein extracted from freeze-dried gelatin pad (reverse phase HPLC); format: physicochemical; conditions: extracted in 10 mM sodium phosphate, 150 mM sodium chloride buffer pH 7.2
# Experimental: 25 mg was cut from the pad and placed in a weighing boat. The dry PeproStat was extracted from the pad by thoroughly soaking the pad in 1 mL 10 mM sodium phosphate, 150 mM sodium chloride buffer, pH 7.2±0.2, and then squeezing the resultant solution out of the pad. The extraction procedure was performed on four separate occasions. The protein content of recovered PeproStat in the solution was measured using a 5 μm C8 Symmetry Reverse Phase HPLC from a calibration curve constructed from dilutions of standard PeproStat.
# citrated whole blood = assay: Blood impedance method, blood transfer through soaked polyester/rayon gauze; conditions: 0.5 mL at 5 mg/mL on polyester/rayon gauze; 4×0.5 mL citrated whole blood; n=3
# Experimental: The haemostatic activity of 0.5 mL PeproStat at 5 mg/mL soaked onto a polyester/rayon blend was measured using a blood impedance method as follows:
# A double layer of the polyester/rayon gauze was stretched over a Universal container with an internal diameter of 2.5 cm and the area of gauze covering the open tube was marked. The gauze was removed from the tube and 0.5 mL PeproStat at 5 mg/mL was applied to the marked circle; 0.5 ml water was applied to a second dressing marked in the same manner as a control.
# The Universal containers were weighed and the soaked gauzes stretched across the mouth of the tube. 4×0.5 mL citrated whole blood was then applied sequentially to the soaked gauze, and blood transfer through the gauze was measured by the weight of blood in the tube.
# [3] = system: rabbit liver abrasion injury; assay: Rabbit liver abrasion injury model, haemostatic effect of soaked gelatin pad; format: in vivo; conditions: 5 mg/ml soaked onto gelatin pad; rabbits dosed with heparin 1000 IU/kg; thrombin at 125 units/ml; 1-12 minutes
# Experimental: A rabbit liver abrasion injury model was used to assess the comparative haemostatic effect of PeproStat, thrombin, or saline soaked onto a gelatin pad. Haemostatic activity was determined in rabbits dosed with heparin at 1000 IU/kg.
# A gelatin pad was cut to 2.0×3.0 cm using a scalpel blade. For each treatment, a pad sample was immersed in a 1.5 ml aliquot of test solution (a PeproStat, thrombin, or saline solution). It was then withdrawn and squeezed between gloved fingers to expel air bubbles, then returned to the solution until required.
# A superficial circular lesion (diameter 10.3 mm, depth 2-3 mm) was created by abrading the surface of the liver lobe using a Dremel hand drill (Model 395 Type 5, USA; 10,000-35,000 rpm) with a flat surface abrasion stone (Dremel, part no. 85602 USA). Blood exiting the wound was collected for 15 s with a pre-weighed dry swab. The weight of blood collected was used as a measure of bleeding severity. […]
# Upon removal of the moist gauze, with the test pad still in place, the wound was evaluated for haemostasis at 1, 3, 6, 9, and 12 minutes, where one minute refers to the time from when the test pad is applied to the wound.
# A score of 0 (i.e. no bleeding) is judged as successful haemostasis at each time point. The percentage of 34 treatments (n=34 rabbits) regarded as successful was calculated for each time point.
substance,measurement,setting,value
PeproStat: fibrinogen-binding peptide GPRPG linked via PEG12-maleimide linker to thiolated human serum albumin carrier,Stability in solution (retained ability to form co-polymer with fibrinogen),fibrinogen,at least 6 months
same,Binding to rabbit fibrinogen compared with human fibrinogen,rabbit fibrinogen,comparable
same,Clotting activity of PeproStat from freeze-dried pad versus control non freeze-dried PeproStat,[1],no significant difference
same,Protein recovered from the pad,[2],90-95%
same,Mean weight of blood passing through the gauze,citrated whole blood,0.009 g
same,"Haemostatic activity (successful haemostasis, bleeding score 0) versus saline or thrombin pad",[3],significantly better haemostatic agent
